Experimental data taken from patent US5990078A, “Means of increasing estrogen receptor levels in neural tissue” (The Trustees of Columbia University in the City of New York, priority 1996, dated 1999).
Entries after “also recorded” stand apart in the source; their conditions may differ.

System: trkA mRNA
Assay: Northern blot analysis of trkA mRNA in NGF-treated PC12 cells

SMILES: C[C@]12CC[C@@H]3c4ccc(O)cc4CC[C@H]3[C@@H]1CC[C@@H]2O [estradiol, 17-β estradiol]
- Effect on trkA mRNA (3 days of estrogen treatment): very small effect; also recorded: did not visibly alter
- Increase in trkA mRNA (normalized to 18S RNA) (7 days of estrogen treatment): two-fold; also recorded: twofold
